The structures appear in SMILES notation. The entries are a selection whose mix differs from that of the whole data set. Measured potencies and affinities stand elsewhere. The source made the active and inactive calls.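 The calls were made as follows: active = every replicate test run called active, with the signal falling and half-maximal concentration within twice the top valid dose; inconclusive = the replicate test runs disagree in their calls; inactive = every test run inactive, including effects in the opposite direction.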

This assay can be described thus: reduced cellular PGC1a acetyl-lysine signal – cell-based, cherry-picked samples, dose response (AID 720514).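 Also: 0% = neutral control wells and -100% = positive control wells; actives lower the acetylation signal so they count as inhibitors of PGC1a acetylation.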 As to conditions: U2OS PGC1a acetylation, AlphaLISA, overnight; at 19.5 µM (top of the series) unless noted. A general note: In Alpha technology, singlet oxygen from a donor bead excites a nearby acceptor bead.
As to `O=c1[nH]c2ccccc2n1C1CCN(C(c2ccccc2OC(F)(F)F)c2nnnn2C2CCCC2)CC1` (configuration not stated), the activity change, negative = inhibition is inactive: 68.9% [at 10 µM].

On to `O=c1[nH]c2ccccc2n1C1CCN(C(c2ccccc2OC(F)(F)F)c2nnnn2C2CCCCC2)CC1` (configuration not stated), for which the activity change, negative = inhibition is inactive: 46%.

Source of the values: PubChem BioAssay AID720514 (Broad Institute, 2013).
